Data as given in patent publication US20070270455A1, “INHIBITION OF NF-kB” (priority 2005, published 2007).

Tested on: RCC54
Test: Global gene expression profile by microarray hybridization, RCC54
Type: cell-based
Conditions: 16 hours

Nc1c2ccccc2nc2ccccc12 [9AA, 9-aminoacridine]
Relative expression compared to untreated cells: Activating transcription factor 3 (9AA 2 μM): 1.07
Relative expression compared to untreated cells: Amyloid beta (A4) precursor-like protein 2 (9AA 2 μM): 1.19
Relative expression compared to untreated cells: Annexin A1 (9AA 2 μM): 1.01
Relative expression compared to untreated cells: Apoptotic protease activating factor (9AA 2 μM): 0.78
Relative expression compared to untreated cells: BCL2 binding component 3 (PUMA) (9AA 2 μM): 1.03
Relative expression compared to untreated cells: BTG family member 2 (9AA 2 μM): 1.44
Relative expression compared to untreated cells: CD44 antigen (homing function and Indian blood group system) (9AA 2 μM): 0.88
Relative expression compared to untreated cells: Carboxylesterase 2 (intestine, liver) (9AA 2 μM): 0.80
Relative expression compared to untreated cells: Chemokine (C-C motif) ligand 2 (9AA 2 μM): 0.64
Relative expression compared to untreated cells: Chemokine (C-C motif) ligand 20 (9AA 2 μM): 0.64
Relative expression compared to untreated cells: Chemokine (C-X-C motif) ligand 1 (melanoma growth stimulating activity, alpha) (9AA 2 μM): 0.40
Relative expression compared to untreated cells: Chemokine (C-X-C motif) ligand 6 (granulocyte chemotactic protein 2) (9AA 2 μM): 1.22
Relative expression compared to untreated cells: Chemokine-like factor super family 3 (9AA 2 μM): 0.87
Relative expression compared to untreated cells: Cyclin D1 (PRAD1: parathyroid adenomatosis 1) (9AA 2 μM): 0.77
Relative expression compared to untreated cells: Cyclin-dependent kinase inhibitor 1A (p21, Cip1) (9AA 2 μM): 1.25
Relative expression compared to untreated cells: Damage-specific DNA binding protein 2, 48 kDa (9AA 2 μM): 0.89
Relative expression compared to untreated cells: Growth arrest and DNA-damage-inducible, beta (9AA 2 μM): 1.22
Relative expression compared to untreated cells: Heat shock 27 kDa protein 1 (9AA 2 μM): 0.82
Relative expression compared to untreated cells: Interleukin 8 (9AA 2 μM): 0.62
Relative expression compared to untreated cells: KILLER/DR5 (9AA 2 μM): 1.1
Relative expression compared to untreated cells: Leucine-rich repeats and death domain containing (9AA 2 μM): 1.12
Relative expression compared to untreated cells: Mdm2, transformed 3T3 cell double minute 2, p53 binding protein (mouse) (9AA 2 μM): 0.96
Relative expression compared to untreated cells: Nuclear factor of kappa light polypeptide gene enhancer in B-cells inhibitor, alpha (9AA 2 μM): 0.73
Relative expression compared to untreated cells: Ribonucleotide reductase M2 B (TP53 inducible) (9AA 2 μM): 1.11
Relative expression compared to untreated cells: Tenascin C (hexabrachion) (9AA 2 μM): 0.70
Relative expression compared to untreated cells: Thiosulfate sulfurtransferase (rhodanese) (9AA 2 μM): 1.18
Relative expression compared to untreated cells: Tumor necrosis factor receptor superfamily, member 9 (9AA 2 μM): 0.63
Relative expression compared to untreated cells: Tumor necrosis factor, alpha-induced protein 6 (9AA 2 μM): 1.26
Relative expression compared to untreated cells: Tumor protein p53 inducible nuclear protein 1 (9AA 2 μM): 1.03
Relative expression compared to untreated cells: V-myc myelocytomatosis viral oncogene homolog (avian) (9AA 2 μM): 1.19
Relative expression compared to untreated cells: Vascular cell adhesion molecule 1 (9AA 2 μM): 0.88
Relative expression compared to untreated cells: Activating transcription factor 3 (9AA 10 μM): 3.56
Relative expression compared to untreated cells: Amyloid beta (A4) precursor-like protein 2 (9AA 10 μM): 1.68
Relative expression compared to untreated cells: Annexin A1 (9AA 10 μM): 3.04
Relative expression compared to untreated cells: Apoptotic protease activating factor (9AA 10 μM): 1.27
Relative expression compared to untreated cells: BCL2 binding component 3 (PUMA) (9AA 10 μM): 1.57
Relative expression compared to untreated cells: BTG family member 2 (9AA 10 μM): 1.88
Relative expression compared to untreated cells: CD44 antigen (homing function and Indian blood group system) (9AA 10 μM): 0.65
Relative expression compared to untreated cells: Carboxylesterase 2 (intestine, liver) (9AA 10 μM): 1.75
Relative expression compared to untreated cells: Chemokine (C-C motif) ligand 2 (9AA 10 μM): 0.26
Relative expression compared to untreated cells: Chemokine (C-C motif) ligand 20 (9AA 10 μM): 0.26
Relative expression compared to untreated cells: Chemokine (C-X-C motif) ligand 1 (melanoma growth stimulating activity, alpha) (9AA 10 μM): 0.08
Relative expression compared to untreated cells: Chemokine (C-X-C motif) ligand 6 (granulocyte chemotactic protein 2) (9AA 10 μM): 0.11
Relative expression compared to untreated cells: Chemokine-like factor super family 3 (9AA 10 μM): 0.56
Relative expression compared to untreated cells: Cyclin D1 (PRAD1: parathyroid adenomatosis 1) (9AA 10 μM): 0.29
Relative expression compared to untreated cells: Cyclin-dependent kinase inhibitor 1A (p21, Cip1) (9AA 10 μM): 3.80
Relative expression compared to untreated cells: Damage-specific DNA binding protein 2, 48 kDa (9AA 10 μM): 1.38
Relative expression compared to untreated cells: Growth arrest and DNA-damage-inducible, beta (9AA 10 μM): 2.78
Relative expression compared to untreated cells: Heat shock 27 kDa protein 1 (9AA 10 μM): 1.30
Relative expression compared to untreated cells: Interleukin 8 (9AA 10 μM): 0.09
Relative expression compared to untreated cells: KILLER/DR5 (9AA 10 μM): 1.9
Relative expression compared to untreated cells: Leucine-rich repeats and death domain containing (9AA 10 μM): 2.12
Relative expression compared to untreated cells: Mdm2, transformed 3T3 cell double minute 2, p53 binding protein (mouse) (9AA 10 μM): 2.86
Relative expression compared to untreated cells: Nuclear factor of kappa light polypeptide gene enhancer in B-cells inhibitor, alpha (9AA 10 μM): 0.54
Relative expression compared to untreated cells: Ribonucleotide reductase M2 B (TP53 inducible) (9AA 10 μM): 3.53
Relative expression compared to untreated cells: Tenascin C (hexabrachion) (9AA 10 μM): 0.59
Relative expression compared to untreated cells: Thiosulfate sulfurtransferase (rhodanese) (9AA 10 μM): 3.59
Relative expression compared to untreated cells: Tumor necrosis factor receptor superfamily, member 9 (9AA 10 μM): 0.85
Relative expression compared to untreated cells: Tumor necrosis factor, alpha-induced protein 6 (9AA 10 μM): 0.48
Relative expression compared to untreated cells: Tumor protein p53 inducible nuclear protein 1 (9AA 10 μM): 1.61
Relative expression compared to untreated cells: V-myc myelocytomatosis viral oncogene homolog (avian) (9AA 10 μM): 0.40
Relative expression compared to untreated cells: Vascular cell adhesion molecule 1 (9AA 10 μM): 0.53
